# From US20080145340A1, “Neuroactive agents and methods of their use” (The University of Western Australia, priority 2005, published 2008)
# Amino acid sequences for entries named in this document (tags omitted). Residues count along the entry.
# UniProt P26453, 23-388: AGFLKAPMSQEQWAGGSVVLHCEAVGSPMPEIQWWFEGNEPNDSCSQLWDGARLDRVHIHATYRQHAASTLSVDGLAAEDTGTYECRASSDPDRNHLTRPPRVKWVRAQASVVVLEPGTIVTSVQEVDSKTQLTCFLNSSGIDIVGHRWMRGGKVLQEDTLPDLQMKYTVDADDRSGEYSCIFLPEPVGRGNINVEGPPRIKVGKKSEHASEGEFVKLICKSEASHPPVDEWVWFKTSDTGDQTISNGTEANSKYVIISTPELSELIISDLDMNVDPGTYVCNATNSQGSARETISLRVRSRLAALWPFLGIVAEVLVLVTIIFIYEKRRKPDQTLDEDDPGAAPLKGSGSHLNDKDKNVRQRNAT
# Biological target: CD147 receptor on rat cortical neuronal cultures (rat) (UniProt P26453)
# Test: cell-based or functional assay
substance,measurement,value
recombinant human cyclophilin A (from UniProt P62937 1-165) (ligand),"ERK1 (p44) activation at 5 min, rhCyPA 100 nM, immunoblot densitometry",2.6 fold
same,"ERK2 (p42) activation at 5 min, rhCyPA 100 nM, immunoblot densitometry",3.3 fold
same,"neuronal survival after cumene exposure, CyPA 10 nM (MTS assay; 15% without CyPA)",56%
same,"neuronal survival after cumene exposure, CyPA 100 nM (MTS assay; 15% without CyPA)",70%
same,"neuronal survival after in vitro ischemia, rhCyPA 100 nM (MTS assay; 24% without CyPA)",35%
